According to ChEMBL document CHEMBL1129436, “Novel peptidyl alpha-keto amide inhibitors of calpains and other cysteine proteases” (J Med Chem, 1996):

Biological target: Cathepsin B (Homo sapiens, UniProt P07858)
Experiment: Inhibition of human cathepsin B
Procedure, shortened: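 Bovine or human cathepsin B, assayed in 20 mM sodium acetate, pH 5.2, with 0.5 mM dithiothreitol and 2% DMSO. The two enzyme sources were used interchangeably. Ki was taken from Dixon plots, with triplicate assays plotted as 1/v versus inhibitor concentration.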

Ki: 2800 nM
Structure (SMILES): CCC(NC(=O)C(CC(C)C)NC(=O)C(c1ccccc1)c1ccccc1)C(=O)C(=O)NCc1ccccn1 (stereo unspecified)
